Source: article PMC11968843

The chains behind the UniProt entries cited, without tags or fusion partners.
UniProt Q6V1X1, whole entry: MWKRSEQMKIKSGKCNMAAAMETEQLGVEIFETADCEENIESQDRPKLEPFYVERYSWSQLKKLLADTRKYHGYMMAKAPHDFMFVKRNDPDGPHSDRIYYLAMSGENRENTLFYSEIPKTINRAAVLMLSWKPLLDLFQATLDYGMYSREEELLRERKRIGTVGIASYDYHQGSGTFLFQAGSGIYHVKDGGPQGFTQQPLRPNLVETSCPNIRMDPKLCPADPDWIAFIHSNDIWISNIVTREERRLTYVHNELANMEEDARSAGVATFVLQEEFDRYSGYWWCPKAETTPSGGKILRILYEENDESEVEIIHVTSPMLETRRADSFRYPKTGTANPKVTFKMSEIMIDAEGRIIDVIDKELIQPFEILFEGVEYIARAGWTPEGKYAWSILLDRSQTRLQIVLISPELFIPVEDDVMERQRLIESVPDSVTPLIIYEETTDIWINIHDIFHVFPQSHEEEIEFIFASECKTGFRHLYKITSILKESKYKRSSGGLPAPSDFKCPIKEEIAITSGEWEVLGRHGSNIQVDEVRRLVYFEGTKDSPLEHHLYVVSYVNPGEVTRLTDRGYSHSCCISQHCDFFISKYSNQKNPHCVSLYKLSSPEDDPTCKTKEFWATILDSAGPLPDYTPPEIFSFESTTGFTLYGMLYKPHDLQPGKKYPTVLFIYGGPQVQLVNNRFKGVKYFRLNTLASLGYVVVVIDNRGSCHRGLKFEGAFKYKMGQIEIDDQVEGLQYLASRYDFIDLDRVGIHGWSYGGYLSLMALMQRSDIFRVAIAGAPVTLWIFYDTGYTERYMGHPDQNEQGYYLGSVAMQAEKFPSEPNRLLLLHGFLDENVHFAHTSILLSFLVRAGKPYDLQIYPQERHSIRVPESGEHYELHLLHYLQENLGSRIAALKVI
UniProt Q86TI2, whole entry: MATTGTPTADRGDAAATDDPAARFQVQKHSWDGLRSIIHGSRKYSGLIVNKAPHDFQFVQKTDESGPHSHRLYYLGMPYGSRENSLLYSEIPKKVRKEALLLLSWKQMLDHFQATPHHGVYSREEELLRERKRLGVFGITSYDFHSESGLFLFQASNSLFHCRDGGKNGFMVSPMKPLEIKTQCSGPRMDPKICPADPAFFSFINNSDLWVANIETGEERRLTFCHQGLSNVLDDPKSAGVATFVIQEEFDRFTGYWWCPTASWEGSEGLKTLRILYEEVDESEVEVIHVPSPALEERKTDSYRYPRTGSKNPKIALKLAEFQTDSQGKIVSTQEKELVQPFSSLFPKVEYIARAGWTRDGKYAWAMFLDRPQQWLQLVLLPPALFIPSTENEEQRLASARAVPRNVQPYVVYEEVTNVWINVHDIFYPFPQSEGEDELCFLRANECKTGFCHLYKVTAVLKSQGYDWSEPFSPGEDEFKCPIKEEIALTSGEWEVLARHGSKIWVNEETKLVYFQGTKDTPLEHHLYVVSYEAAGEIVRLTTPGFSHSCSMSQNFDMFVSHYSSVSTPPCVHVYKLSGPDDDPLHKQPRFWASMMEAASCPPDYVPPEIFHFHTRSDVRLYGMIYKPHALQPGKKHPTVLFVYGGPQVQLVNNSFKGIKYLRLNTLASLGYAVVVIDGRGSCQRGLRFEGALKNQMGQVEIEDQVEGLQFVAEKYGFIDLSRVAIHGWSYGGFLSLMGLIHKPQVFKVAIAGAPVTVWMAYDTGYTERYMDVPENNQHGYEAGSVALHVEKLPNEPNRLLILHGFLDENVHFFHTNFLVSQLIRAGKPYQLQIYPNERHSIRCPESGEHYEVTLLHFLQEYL

Key:
[1] = target: DPP8 (Homo sapiens, UniProt Q6V1X1); conditions: read-out: IC50 DPP8; GP-AMC 250 µM, 10 nM enzyme, 45 min pre-incubation at 30 °C
[2] = target: T1, DPP9 (Homo sapiens, UniProt Q86TI2); conditions: for IC50: read-out: IC50 DPP9, GP-AMC 250 µM, 10 nM enzyme, 45 min pre-incubation at 30 °C; for DPP9 activity [%]: replicates, tested form: TFA
[3] = target: T1, DPP9; assay: Time-dependent DPP9 inhibition kinetics; type: biochemical; conditions: n=3, tested form: TFA
[4] = system: HeLa wild-type cells; assay: Cell viability assay; type: cell-based; conditions: tested form: TFA; for effect on cell viability without MMC: 10 µM, 72 h; for 95% confidence interval of difference: Figure S11b, Ctrl. vs. compound, Uncorrected Fisher's LSD
[5] = system: HEK293 cell lysates (proteome-wide targets of probe 9); type: binding, H. sapiens; conditions: 50 µM competitor, 10 µM 9, HEK293 lysates; tested form: TFA

N[C@H]1CCCN([P@](N)(=O)NS(=O)(=O)O)C1=O
IC50 [1]: > 100 µM | IC50 [2]: 72.7 µM

C#CCCCCCCP(=O)(OCC)N1CCC[C@H](N)C1=O (some centres unmarked)
kobs ([3]; c 12500 nM): 3.81e-05 s⁻¹ | kobs ([3]; c 25000 nM): 5.42e-05 s⁻¹ | kobs ([3]; c 50000 nM): 8.79e-05 s⁻¹ | kobs ([3]; c 100000 nM): 0.000125 s⁻¹ | DPP9 activity [%] ([2]; c 1562.5 nM): 96.3619% and 93.8019% and 90.7073% | DPP9 activity [%] ([2]; c 3125 nM): 90.8045% and 89.28% and 92.2244% | DPP9 activity [%] ([2]; c 6250 nM): 89.6129% and 87.7806% and 84.876% | DPP9 activity [%] ([2]; c 12500 nM): 80.4881% and 71.5519% and 73.1353% | DPP9 activity [%] ([2]; c 25000 nM): 59.521% and 52.8796% and 53.8653% | DPP9 activity [%] ([2]; c 50000 nM): 32.4162% and 31.7268% and 33.9907% | DPP9 activity [%] ([2]; c 100000 nM): 16.7766% and 12.7762% and 13.8485%

CCCCCCCCCCP(=O)(OCC)N1CCC[C@H](N)C1=O (some centres unmarked)
effect on cell viability without MMC [4]: Lower cell viability | 95% confidence interval of difference [4]: -8,549 to 5,070

N[C@@H]1CCCN([P@](N)(=O)NS(=O)(=O)O)C1=O
IC50 [1]: > 100 µM | IC50 [2]: > 100 µM

CCCCCCCCCCCCP(=O)(OCC)N1CCC[C@H](N)C1=O (some centres unmarked)
competition of labeling by probe 9 [5]: solely DPP9 was competed | effect on cell viability without MMC [4]: Lower cell viability | 95% confidence interval of difference [4]: 0,3950 to 14,01

Values joined by “and” are separate entries in the source; they are usually repeats but may differ in a detail not shown here. Identical values can stand only once. Like-named read-outs stand apart in the source and are kept apart here.
